Key:
[1] = molecular target: Sodium-dependent serotonin transporter (Rattus norvegicus, UniProt P31652); assay: Displacement of [3H]paroxetine from SERT in Sprague-Dawley rat brain; format: tissue-based
How it was run: (§1)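 Male Sprague-Dawley rats (200-250 g); striata, midbrain or frontal cortex tissue used for competition binding. Final radioligand concentrations were 0.5 nM for DAT, 0.2 nM [³H]paroxetine for SERT and 0.5 nM [³H]nisoxetine for NET.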

By UniProt entry, the sequences of proteins in these tests, tags left out.
UniProt P31652, whole entry: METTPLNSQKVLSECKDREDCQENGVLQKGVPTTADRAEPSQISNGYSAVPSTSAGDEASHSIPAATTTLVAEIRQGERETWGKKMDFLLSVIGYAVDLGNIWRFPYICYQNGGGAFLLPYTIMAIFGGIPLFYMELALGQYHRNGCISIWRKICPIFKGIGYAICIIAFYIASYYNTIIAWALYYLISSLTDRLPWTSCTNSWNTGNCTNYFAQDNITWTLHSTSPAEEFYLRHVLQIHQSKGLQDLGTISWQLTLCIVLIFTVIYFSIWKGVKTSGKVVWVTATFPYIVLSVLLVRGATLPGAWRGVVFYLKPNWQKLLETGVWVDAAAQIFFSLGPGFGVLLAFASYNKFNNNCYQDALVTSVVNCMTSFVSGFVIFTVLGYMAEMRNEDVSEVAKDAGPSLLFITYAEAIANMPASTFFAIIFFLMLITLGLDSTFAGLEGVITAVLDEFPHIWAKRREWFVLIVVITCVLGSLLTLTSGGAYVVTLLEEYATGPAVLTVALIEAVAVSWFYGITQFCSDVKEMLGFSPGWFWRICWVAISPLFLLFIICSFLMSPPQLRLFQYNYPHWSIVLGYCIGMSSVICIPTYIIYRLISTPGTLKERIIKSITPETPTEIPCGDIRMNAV
UniProt Q01959, whole entry: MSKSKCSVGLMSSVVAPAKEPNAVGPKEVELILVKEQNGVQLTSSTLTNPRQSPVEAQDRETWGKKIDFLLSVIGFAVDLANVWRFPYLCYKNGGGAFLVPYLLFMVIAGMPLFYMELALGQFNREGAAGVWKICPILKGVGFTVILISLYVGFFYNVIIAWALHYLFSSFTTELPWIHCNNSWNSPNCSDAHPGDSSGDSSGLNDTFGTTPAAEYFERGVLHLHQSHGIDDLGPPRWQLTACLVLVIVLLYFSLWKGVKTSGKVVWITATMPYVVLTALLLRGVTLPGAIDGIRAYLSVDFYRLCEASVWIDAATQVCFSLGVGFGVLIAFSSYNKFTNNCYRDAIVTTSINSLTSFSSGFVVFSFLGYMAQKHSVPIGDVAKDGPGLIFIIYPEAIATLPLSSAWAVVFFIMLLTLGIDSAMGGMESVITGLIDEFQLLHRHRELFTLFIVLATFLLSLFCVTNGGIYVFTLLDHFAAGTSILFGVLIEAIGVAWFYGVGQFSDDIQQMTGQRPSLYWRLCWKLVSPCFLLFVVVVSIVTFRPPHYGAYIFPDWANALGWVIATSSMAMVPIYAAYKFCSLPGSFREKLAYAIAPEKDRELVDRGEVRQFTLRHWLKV
UniProt P23977, whole entry: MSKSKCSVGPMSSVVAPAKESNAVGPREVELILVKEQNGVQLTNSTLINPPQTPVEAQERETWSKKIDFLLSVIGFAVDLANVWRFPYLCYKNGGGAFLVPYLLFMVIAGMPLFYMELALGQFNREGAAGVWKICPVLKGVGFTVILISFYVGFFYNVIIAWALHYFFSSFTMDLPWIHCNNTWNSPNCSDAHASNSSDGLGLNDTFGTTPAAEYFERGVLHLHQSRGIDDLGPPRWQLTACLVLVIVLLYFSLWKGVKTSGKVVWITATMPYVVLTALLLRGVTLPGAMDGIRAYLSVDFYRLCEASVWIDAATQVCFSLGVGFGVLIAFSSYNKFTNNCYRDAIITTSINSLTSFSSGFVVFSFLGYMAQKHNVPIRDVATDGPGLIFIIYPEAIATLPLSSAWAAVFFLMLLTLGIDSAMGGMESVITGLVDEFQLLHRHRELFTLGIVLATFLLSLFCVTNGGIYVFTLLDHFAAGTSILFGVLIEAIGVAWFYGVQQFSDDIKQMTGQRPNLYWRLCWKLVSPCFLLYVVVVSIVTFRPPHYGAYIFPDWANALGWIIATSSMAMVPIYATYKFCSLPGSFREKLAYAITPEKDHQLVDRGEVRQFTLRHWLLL

[2] = molecular target: Sodium-dependent dopamine transporter (Homo sapiens, UniProt Q01959); assay: Displacement of [125I]RTI-55 from human DAT expressed in HEK cells after 90 mins; format: cell-based, HEK293
How it was run: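 Competition binding on human DAT or SERT stably expressed in HEK293 cells, using the nonselective radioligand [¹²⁵I]RTI-55.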

[3] = molecular target: Sodium-dependent dopamine transporter (Rattus norvegicus, UniProt P23977); assay: Displacement of [3H]WIN-35428 from DAT in Sprague-Dawley rat brain; format: tissue-based; how it was run: as §1

## COC(=O)[C@H]1[C@@H](c2ccccc2)C[C@@H]2CC[C@H]1N2C [TROPARIL]
[1]
  Ki: 1900 nM

## CN1[C@H]2CC[C@@H]1[C@@H](c1ncc(-c3ccc(Br)cc3)s1)[C@@H](c1ccc(Cl)cc1)C2
[2]
  Ki: 35 nM
[3]
  IC50: 107 nM
